Key:
[1] = cynomolgus monkey, in vivo, po, 5 mg/kg, 24 h
[2] = rat, in vivo, iv, 1 mg/kg, 24 h
[3] = monkey, in vivo, iv, 7.5 mg/kg
[4] = chlorocebus sabaeus, in vivo, iv, 20 mg/kg, 24 h
[5] = dog, in vivo, po, 5 mg/kg, 24 h
[6] = rat, in vivo, po, 5 mg/kg, 24 h
[7] = dog, in vivo, iv, 1 mg/kg, 24 h
[8] = chlorocebus sabaeus, in vivo, po, 5 mg/kg, 24 h

With `N#C[C@@]1(c2ccc3c(N)ncnn23)O[C@H](CO)[C@@H](O)[C@H]1O` [GS-441524] the Cmax [1] was 0.54 µM, the Cmax [2] was 1.78 µM and the Cmax [3] was about 33 µM. For the same compound, the Cmax [4] was 87.3 µM, the Cmax [5] was 27.3 µM and the Cmax [6] was 1.11 µM. The Cmax [7] was 13.5 µM and the Cmax [8] was 0.36 µM.

From ChEMBL document CHEMBL5321279 (J Med Chem, 2023)
